For 95 compounds, activity change results are on record in PubChem BioAssay AID1224865 (Sanford-Burnham Center for Chemical Genomics, 2016).

Chains of the proteins cited; added tags and fusions are not shown.
UniProt P41235, whole entry: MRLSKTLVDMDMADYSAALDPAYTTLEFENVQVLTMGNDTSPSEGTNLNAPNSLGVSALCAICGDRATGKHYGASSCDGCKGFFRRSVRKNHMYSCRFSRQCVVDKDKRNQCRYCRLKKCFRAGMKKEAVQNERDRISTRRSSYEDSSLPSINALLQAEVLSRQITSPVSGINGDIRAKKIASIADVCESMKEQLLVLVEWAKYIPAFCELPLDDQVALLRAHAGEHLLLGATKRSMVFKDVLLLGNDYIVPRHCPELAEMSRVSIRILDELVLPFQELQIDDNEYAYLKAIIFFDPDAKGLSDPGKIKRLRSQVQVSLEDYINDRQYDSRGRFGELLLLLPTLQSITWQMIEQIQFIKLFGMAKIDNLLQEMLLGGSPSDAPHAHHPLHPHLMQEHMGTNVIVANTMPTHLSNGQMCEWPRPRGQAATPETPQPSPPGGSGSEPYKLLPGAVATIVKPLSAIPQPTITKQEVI

The list shows a part of the results, in another mix than the full data. Activity calls are given as the source filed them. Cut-off read from the data, not from the text of the source: active = activity change above about 30% (passing the limit was not always enough); inactive = the rest.

This assay deals with Hepatocyte nuclear factor 4-alpha (Homo sapiens) (UniProt P41235). Description: HNF4-alpha DNA association modulation – biochemical, fluorescence polarization, FITC-DNA, primary screen (AID 1224865). Particulars: HNF4a-FITC DNA binding, 1 h, at 10 µM, hits give high values.
`O=C(OC1CN2CCC1CC2)c1cccc(Cl)c1` (stereo not given): the activity change was inactive: 2.61%.

On to `O=[N+]([O-])c1ccc(O)c(/C=N/Nc2ccc([N+](=O)[O-])cc2[N+](=O)[O-])c1`, for which the activity change is inactive: -7.07%. On to `O=[N+]([O-])c1ccc(OP2(=O)COCCO2)cc1` (stereo not given), for which the activity change was inactive: -0.13%. As for `CC(=O)NC(SC(=S)N(C)C)C(Cl)(Cl)Cl` (stereo not given), the figure is inactive: -2.74%. For `O=[N+]([O-])c1ncn(CCn2cnc([N+](=O)[O-])n2)n1` the value was inactive: -0.43%; for `Cc1cc(-c2cccc3ccccc23)c(C)cn1.O=[N+]([O-])c1cc([N+](=O)[O-])c(O)c([N+](=O)[O-])c1`, inactive: 0.94%. As for `O=[N+]([O-])c1cc([N+](=O)[O-])c(NCC2CCS(=O)(=O)C2)c([N+](=O)[O-])c1` (stereo not given), the figure is inactive: -0.28%; as for `O=[As](O)(c1ccccc1)c1ccc(O)cc1`, inactive: -1.19%; as for `C[C@H]1OP(=O)(Oc2ccccc2)[C@H](O)[C@H](O)[C@H]1N=[N+]=[N-]` (stereo not given in full), inactive: -1.13%. Consider `CN(C)CCOC(=O)C(O)(c1ccccc1)C1CCCCC1` (stereo not given), for which the activity change was inactive: -0.61%. For `O=P(Nc1nc2ccccc2s1)(c1ccccc1)c1ccccc1` the value was inactive: 6.02%; for `COc1ccc(NP(C)(=O)Oc2ccccc2OC)cc1` (stereo not given), inactive: 0.4%. For `COc1ccc(N)c([N+](=O)[O-])c1[N+](=O)[O-]`, the activity change is inactive: -7.98%. For `COc1ccc(OP(C)(=O)Nc2cccc(Br)c2)cc1` (stereo not given), the activity change was inactive: -0.07%. For `O=P(Nc1ccccn1)(c1ccc(Br)cc1)c1ccc(Br)cc1` the value was inactive: 3.06%; for `CN(C)C1(CNC(=O)c2ccc(Cl)c(S(N)(=O)=O)c2)CCCCC1`, inactive: 3.21%. On to `Cc1ccccc1NP(C)(=O)Nc1ccccc1C`, for which the activity change is inactive: -4.44%. Turning to `O=[N+]([O-])c1cc([N+](=O)[O-])c(C(F)(F)F)c([N+](=O)[O-])c1O`, the activity change is inactive: 5.64%. For `CP(=O)(Nc1ccc2c(c1)OCCO2)Oc1ccccc1` (stereo not given), the activity change was inactive: 1.24%. For `CCOP(C)(=S)SCC(=O)NC(C)(CC)C(=O)O` (stereo not given) the value was inactive: 0.75%; for `c1nnnn1CCn1cnnn1`, inactive: 0.41%; for `CP(=O)(Nc1ccc(SC(F)(F)F)cc1)Oc1ccc(F)cc1` (stereo not given), inactive: -2.77%. For `CC(C)C(=O)NC(Sc1ccccc1)C(Cl)(Cl)Cl` (stereo not given) the value was inactive: 3.14%; for `O=P(Nc1nccs1)(c1ccccc1)c1ccccc1`, inactive: -0.14%. On to `CN(C)C(=O)OCCc1n(C)cc[n+]1C`, for which the activity change is inactive: -0.71%.

Turning to `CN(C)C(=O)c1c([N+](=O)[O-])cc([N+](=O)[O-])cc1[N+](=O)[O-]`, the activity change is inactive: 1.07%. `CC(C)=N/N=C(\N)N[N+](=O)[O-]`: the activity change is inactive: 2.59%.

`CC(C)c1nc(Nc2ccccc2)n(P(=O)(N(C)C)N(C)C)n1`: the activity change was inactive: 2.09%. Regarding `c1cc(-c2nn[nH]n2)ccc1-c1nn[nH]n1`, the activity change was inactive: -1.91%.

With `CC1CCN(C(=O)Oc2c(Cl)cc(Cl)c3cccnc23)CC1`, the activity change was inactive: 6.76%. With `C[N+]1=C2C=CC=CC=C2SC12C([N+](=O)[O-])=CC([N+](=O)[O-])=C[C-]2[N+](=O)[O-]` (stereo not given), the activity change was inactive: -39.5%. For `CC(C)(C)c1ccc(OP(C)(=O)O)cc1` the value was inactive: 0.8%; for `Nc1ccc([As](=O)(O)c2ccc(N)cc2)cc1`, inactive: 3.36%. Regarding `COc1ccccc1OP(C)(=O)Nc1ccccc1Br` (stereo not given), the activity change is inactive: 1.62%. For `CP(=O)(Nc1ccc(Cl)cc1)Oc1ccc(F)cc1` (stereo not given) the value was inactive: -2.95%; for `CCN(/C(=N/P(=O)(N1CCOCC1)N1CCOCC1)N1CCOCC1)c1ccc(OC)cc1`, inactive: -3.42%; for `O=C(OCCCN1CCCC1)C(O)(c1ccccc1)C1CCCCC1` (stereo not given), inactive: 3.1%.

Take `COc1ccccc1OP(C)(=O)Nc1c(C)n(C)n(-c2ccccc2)c1=O` (stereo not given): the activity change is inactive: 1.26%.

With `O=[N+]([O-])c1cccc2n[nH]nc12`, the activity change is inactive: -1.24%. As for `CC(=O)N1C2C3N(C(C)=O)C1C1N(C(C)=O)C(C(N1C(C)=O)N3C(C)=O)N2C(C)=O`, the activity change is inactive: 1.05%. For `CCc1nc2c(n1)c1c(non1O)c1c2no[n+]1[O-]` the value was inactive: -3.57%; for `O=[N+]([O-])c1cc([N+](=O)[O-])c(CCNc2ccccc2)c([N+](=O)[O-])c1`, inactive: 1.32%; for `CCc1ccc(OP(C)(=O)Nc2cccnc2)cc1` (stereo not given), inactive: -3.64%.

Regarding `Cc1ccc(NP(=O)(Oc2ccccc2)Oc2ccccc2)nc1`, the activity change is inactive: 5.77%. As for `CP(=O)(Oc1ccccc1)N1CCOC1=O` (stereo not given), the figure is inactive: 0.06%; as for `COc1ccc(C2=NCC(CBr)S2)cc1` (stereo not given), inactive: 2.14%; as for `COc1ccc(OP(C)(=O)Nc2ccc(Br)cc2)cc1` (stereo not given), inactive: -2.66%. For `CCN(CC)CC(O)COC(=O)C(O)(c1ccccc1)C1CCCCC1` (stereo not given) the value was inactive: -3.84%; for `O=[N+]([O-])c1cccc(NC2=NCC(CBr)S2)c1` (stereo not given), inactive: -0.71%; for `COC(=O)C1(C)COP(=O)(Nc2ccccc2)OC1` (stereo not given), inactive: -0.76%. As for `O=C(O)CNc1ccc([As](=O)(O)O)cc1`, the figure is inactive: 0.62%. In the case of `CC(C)(C)C(=O)NC(Sc1ccncn1)C(Cl)(Cl)Cl` (stereo not given), the activity change was inactive: -0.8%.

Consider `O=[N+]([O-])c1ncn(CCn2ncnc2[N+](=O)[O-])n1`, for which the activity change was inactive: -0.75%. As to `O=C(Nc1cc([As](=O)(O)O)ccc1O)c1ccccc1`, the activity change is inactive: 1.12%.

Turning to `CCOC(=O)c1ccc(NP(C)(=O)Oc2ccc(Cl)cc2)cc1` (stereo not given), the activity change is inactive: -0.66%. As for `CP(=O)(OC12CC3CC(CC(C3)C1)C2)OC12CC3CC(CC(C3)C1)C2`, the figure is inactive: -3.49%. As for `O=P1(N(CCCl)CCCl)OCCCS1` (stereo not given), the figure is inactive: 0.83%. As for `CCN(N=Nc1nonc1N)c1nonc1N`, the figure is inactive: -2.56%; as for `CP(=O)(OCCOc1ccccc1)OCCOc1ccccc1`, inactive: -2.17%. For `CP(=O)(Nc1ccc(Cl)cc1Cl)Oc1ccccc1` (stereo not given), the activity change was inactive: 1.68%. For `CCCCCCCCCCCCCCCC1C[N+](C)(C)CCOP(C)(=O)O1` (stereo not given) the value was inactive: 7.66%.

Turning to `Nc1cccc2ccc([As](=O)(O)O)cc12`, the activity change is inactive: -5.6%. Turning to `Cc1ccc(NP(=O)(Oc2ccccc2F)Oc2ccccc2F)nc1`, the activity change is inactive: 4.59%. `CN(C(=O)Cc1ccc(Cl)c(Cl)c1)[C@H]1CCCC[C@@H]1N1CCCC1`: the activity change was inactive: -1.02%.

Turning to `COc1ccccc1OP(C)(=O)Nc1ccc(C)c(C)c1` (stereo not given), the activity change was inactive: 1.15%. For `CCOP(=O)(Nc1ccccc1)OCC` the value was inactive: 1.33%; for `Cc1cc(SC(NC(=O)c2ccc(F)cc2)C(Cl)(Cl)Cl)ncn1` (stereo not given), inactive: 4.49%.

As for `COc1ccc(OP(C)(=O)Nc2ccccc2Br)cc1` (stereo not given), the activity change was inactive: 0.53%. Consider `CCCC1OP(N)(=O)OCC1CC` (stereo not given), for which the activity change is inactive: -3.16%.

Turning to `O=C(O)c1ccccc1[As](=O)(O)O`, the activity change was inactive: -8%. For the compound `CC(=O)Nc1ccc([As](=O)(O)O)cc1`, the activity change is inactive: 2.72%. For `Cc1cc(C)cc(OP(C)(=O)Nc2cccc(C(F)(F)F)c2)c1` (stereo not given) the value was inactive: 0.22%; for `CN(C)P(=O)(N(C)C)n1c(Nc2ccccc2)nnc1-c1ccccc1`, inactive: -4.03%. As for `O=P(Nc1nc2ccc(Cl)cc2s1)(c1ccccc1)c1ccccc1`, the figure is inactive: 2.11%. For `O=C1C(O)=C([N+](=O)[O-])C(=O)C(O)=C1[N+](=O)[O-]` the value was inactive: -37.9%; for `COc1ccccc1OP(C)(=O)Nc1ccc(C)cc1C` (stereo not given), inactive: -0.19%; for `CP(=O)(Nc1ccccn1)Oc1ccccc1` (stereo not given), inactive: 1.49%.

For the compound `CCc1ccc(OP(C)(=O)O)cc1`, the activity change is inactive: -3.54%. For `O=[N+]([O-])C1C(O)C(O)C([N+](=O)[O-])C(O)C1O` (stereo not given), the activity change was inactive: 0.45%. For `CC(C)CC(=O)NC(Sc1ccc(Cl)cc1)C(Cl)(Cl)Cl` (stereo not given) the value was inactive: -1.79%.

In the case of `O=[N+]([O-])c1cc([N+](=O)[O-])c(Nc2ccccn2)c([N+](=O)[O-])c1`, the activity change is inactive: -3.73%.

Consider `Cc1c(NP(C)(=O)Oc2ccc(C(C)C)cc2)c(=O)n(-c2ccccc2)n1C` (stereo not given), for which the activity change is inactive: 2.52%.

In the case of `Nc1cc(N)c2nonc2c1[N+](=O)[O-]`, the activity change is inactive: -0.09%. For `O=C(NC(Sc1ccncn1)C(Cl)(Cl)Cl)c1ccccc1` (stereo not given) the value was inactive: 1.46%; for `Oc1ccccc1CNc1ccccn1`, inactive: -3.09%.

Take `Cc1ccc(OP(=O)(Nc2nccs2)Oc2ccc(C)cc2)cc1`: the activity change is inactive: 3.57%. As for `COc1ccc(OP(C)(=O)Nc2ccccn2)cc1` (stereo not given), the figure is inactive: -2.32%. For `COc1ccccc1OP(=O)(Nc1ccc(C)cn1)Oc1ccccc1OC` the value was inactive: -3.31%. For `Clc1ccc(Cl)c(NC2=NCC(CBr)S2)c1` (stereo not given) the value was inactive: -2.5%; for `CN(C)CCOC(=O)C(O)(c1ccccc1)C1CCCC1` (stereo not given), inactive: 0.69%; for `CN1CCCC(OC(=O)C(c2ccccc2)c2ccccc2)C1` (stereo not given), inactive: -0.49%. For `NC(=O)c1cc([N+](=O)[O-])cc([N+](=O)[O-])c1N`, the activity change is inactive: 1.23%.

On to `Cc1ccc(N/C(=N/P(=O)(N2CCOCC2)N2CCOCC2)N2CCOCC2)cc1`, for which the activity change is inactive: 0.89%.

For the compound `COc1ccccc1OP(C)(=O)Nc1ccc(Br)cc1` (stereo not given), the activity change was inactive: 3.58%. Turning to `CN(C(=O)Cc1ccc(Cl)c(Cl)c1)[C@H]1CCCC[C@H]1N1CCCC1`, the activity change is inactive: -2.69%.
